Experimental data from patent US12029776B2, “Composition for treating cancer and use and medicament thereof” (NEWISH TECHNOLOGY (BEIJING) CO., LTD., priority 2020, dated 2024).

System: liver cancer cell line
Assay: VEGFR2 inhibitors in combination with the SGLT1 inhibitor on the liver cancer cell line (Example 2)
Format: cell-based
Description: Dimethyl sulfoxide (DMSO) can dissolve formazan in cells, and its light absorption value measured at 570 nm wavelength with an enzyme-linked immunodetector can indirectly reflect the number of living cells. Cell growth was determined by 3-(4,5-dimethylthiazol-2-yl)-2,5-diphenyltetrazolium bromide (MTT) assay in a 96-well plate. Specifically, the cells were digested and counted, and then resuspended into a system containing 5000 cells per 200 μL of culture medium and seeded in each well of a 96-well plate. The next day, the medium was replaced with a medium containing different concentrations of sotagliflozin, apatinib, lenvatinib, and the composition of them. After 48 or 72 hours of incubation with the drugs, 20 μL of MTT reagent was added to each well and incubated for 2 hours. After discarding the medium, the formazan deposit in the cells was dissolved in 100 μL of DMSO. The absorbance was measured at 570 nm by a microplate reader. Samples were used in quadruplicate in each group.

Row | SMILES | tumor suppressive effect in combination with the SGLT1 inhibitor compared with single agent
1 | CNC(=O)c1cc(Oc2ccc(NC(=O)Nc3ccc(Cl)c(C(F)(F)F)c3)cc2)ccn1 [sorafenib] | better tumor suppressive effect than as a single agent
2 | CCN(CC)CCNC(=O)c1c(C)[nH]c(/C=C2\C(=O)Nc3ccc(F)cc32)c1C [sunitinib malate] | better tumor suppressive effect than as a single agent
